These are literature values, as cited in PMC6043395.

For the data set, the target named is VPS35 (Homo sapiens) (UniProt Q96QK1).

As a reminder, the Kd is the concentration at which binding is half-saturated. As to VPS29 (from UniProt Q9UBQ0), the Kd is 200 nM.
